Test results from patent US10640495B2, “Heterocycle derivatives having TrkA inhibitory activity” (Shionogi & Co., Ltd., priority 2015, dated 2020).

Amino acid sequences for entries named in this document (tags omitted). Residues count along the entry.
UniProt P04629, 440-796 limits assumed: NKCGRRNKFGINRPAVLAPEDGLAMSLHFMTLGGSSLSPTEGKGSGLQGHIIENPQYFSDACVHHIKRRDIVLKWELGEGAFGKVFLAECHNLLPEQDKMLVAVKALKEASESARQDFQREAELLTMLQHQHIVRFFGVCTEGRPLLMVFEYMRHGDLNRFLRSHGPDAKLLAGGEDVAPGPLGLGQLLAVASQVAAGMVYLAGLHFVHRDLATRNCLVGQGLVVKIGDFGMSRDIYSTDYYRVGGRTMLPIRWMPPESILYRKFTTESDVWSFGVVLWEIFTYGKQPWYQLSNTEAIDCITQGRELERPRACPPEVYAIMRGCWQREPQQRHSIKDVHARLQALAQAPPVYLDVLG

Target: human TrkA (Homo sapiens (Human), UniProt P04629)
Experiment: Human TrkA inhibition assay (Test Example 2)
Description: Seven point five μL per well of human TrkA (PV3144, Lifetechnologies, final concentration: 1 nmol/L) suspended in the assay buffer (100 mmol/L 4-(2-hydroxyethyl)-1-piperazineethanesulfonic acid (HEPES), 10 mmol/L magnecium chloride, 0.003 vol % Brij-35, 0.004 vol % Tween20 and 1 mmol/L dithiothreitol (DTT)) was applied in a 384 well plate and the plate was pre-incubated for 15 min at room temperature with 0.4 μL of each compound (final concentration: 200 μmol/L-1 pmol/L) dissolved in DMSO. Then, fluorescent substrate (FL-peptide 27, 760424, PerkinElmer, final concentration: 1.5 μmol/L) and ATP (final concentration 500 μmol/L) dissolved in the assay buffer was added in each well. After the incubation of 120 min at 37° C., fifteen μL of termination buffer (100 mmol/L HEPES, 40 mmol/L ethylenediaminetetraacetic acid (EDTA), 10 mmol/L magnecium chloride, 0.003 vol % Brij-35, 0.004 vol % Tween20, 1 mmol/L DTT and 0.16 vol % Coating Reagent 3) was added in each well to stop the enzyme reaction. Fluorescent intensities (FI) of phosphorylated and non-phosphorylated fluorescent substrates were measured by LabChip EZReader II (Caliper LifeSciences, Inc.), and conversion ratio (CR) was calculated by the following formula-1. […] The inhibitory effect of each compound on TrkA phosphorylation was calculated by the following formula-2. […]

IC50 (Table 156, human TrkA inhibition) [nM] | Compound | IC50 (Table 155, human TrkA inhibition) [nM]
< 100 | CCN1C[C@@H](NC(=O)Nc2c(C)c(-c3ccc(=O)n(C)c3)nn2-c2ccccc2)[C@H](c2ccc(F)c(F)c2)O1 (relative stereo) | –
– | COCCN1C[C@@H](NC(=O)Nc2c(C)c(-c3cnc4c(c3)CN(C)C4=O)nn2-c2ccccc2)[C@H](c2cnc(F)c(F)c2)O1 | < 100
